In patent US20240245770A1, “COMPOSITIONS AND METHODS FOR TREATING NEUROMUSCULAR DISORDERS” (The Regents of the University of California, priority 2019, published 2024):

Test system: Sorted CD8+ T cells
Test: CD8+ T cell Luminex
Assay type: cell-based, human
Procedure: Increased overall cytokine/chemokine/growth factor/ligands in CD8+ T cells of patient untreated or activated with IL-2 or anti-CD3/28 or IL-2+sAJ2 when compared to healthy twin (Tables 59-62). CD8+ T cell Luminex. Sorted CD8+ T cells were left untreated, treated with IL-2 (1000 U/mL) or treated with the combination of IL-2+anti-CD3/28 antibodies (25 μl/mL) or IL-2+sAJ2 (Cells:sAJ2 1:20). After an overnight treatment at 37° C., the supernatants were harvested and the levels of cytokine/chemokine/growth factor/ligands secretion were measured using multiplex luminex assay (Millipore, MA) (Tables 59-62).
Increased overall cytokine/chemokine/growth factor/ligands in CD8+ T cells of patient untreated or activated with IL-2 or anti-CD3/28 or IL-2+sAJ2 when compared to healthy twin (Tables 81-84). CD8+ T cell Luminex. Sorted CD8+ T cells were left untreated, treated with IL-2 (1000 U/mL) or treated with the combination of IL-2+anti-CD3/28 antibodies (25 μl/mL) or IL-2+sAJ2 (Cells:sAJ2 1:20). After an overnight treatment at 37° C., the supernatants were harvested and the levels of cytokine/chemokine/growth factor/ligands secretion were measured using multiplex luminex assay.
Increased overall cytokine/chemokine/growth factor/ligands in CD8+ T cells of patients untreated or activated with IL-2 or anti-CD3/28 or IL-2+sAJ2 when compared to healthy twin (Tables 90-94). CD8+ T cell Luminex. Sorted CD8+ T cells were left untreated, treated with IL-2 (1000 U/mL) or treated with the combination of IL-2+anti-CD3/28 antibodies (25 μl/mL) or IL-2+sAJ2 (Cells:sAJ2 1:20). After an overnight treatment at 37° C., the supernatants were harvested and the levels of cytokine/chemokine/growth factor/ligands secretion were measured using multiplex luminex assay.
CD8+ T cell Luminex. Sorted CD8+ T cells were treated with the combination of IL-2+anti-CD3/28 antibodies (25 μl/mL). After an overnight treatment at 37° C., the supernatants were harvested and the levels of cytokine/chemokine/growth factor/ligands secretion were measured using multiplex luminex assay (Table 157).

[1] = CD8+ T cells of H105 RS (ALS patient)
[2] = CD8+ T cells of H105 RS (ALS patient), Table 94
[3] = H85 TC CD8, overnight treatment, supernatant

Recombinant human IL-2
MIP1b [1]: 744 pg/mL | PDGF-AB/BB [1]: 197 pg/mL | PDGFaa [1]: 152 pg/mL | Rantes [1]: 7801 pg/mL | TGFa [1]: 5 pg/mL | TNFa [1]: 80 pg/mL | TNFb [1]: 17 pg/mL | VEGF [1]: 1166 pg/mL | sCD40L [1]: 92 pg/mL | PDGF-AB/BB [2]: 197 pg/mL | PDGFaa [2]: 152 pg/mL | sCD40L [2]: 92 pg/mL | IL-7 (CD8 of H84 JC (patient)): 3.96 pg/mL | IL-8 (CD8 of H84 JC (patient)): 547.29 pg/mL | IL-9 (CD8 of H84 JC (patient)): 7.82 pg/mL | IL-10 (CD8 of H84 JC (patient)): 6.26 pg/mL | IL-12p40 (CD8 of H84 JC (patient)): 3.47 pg/mL | IL-12p70 (CD8 of H84 JC (patient)): 2.61 pg/mL | IL-13 (CD8 of H84 JC (patient)): 4.1 pg/mL | IL-15 (CD8 of H84 JC (patient)): 2.12 pg/mL | IL-17a (CD8 of H84 JC (patient)): 2.19 pg/mL | IP-10 (CD8 of H84 JC (patient)): 15.53 pg/mL | L-2 (CD8 of H84 JC (patient)): 5804 pg/mL | MCP1 (CD8 of H84 JC (patient)): 562.72 pg/mL | MCP3 (CD8 of H84 JC (patient)): 4.6 pg/mL | MDC (CD8 of H84 JC (patient)): 223.2 pg/mL | MIP1a (CD8 of H84 JC (patient)): 79 pg/mL | MIP1b (CD8 of H84 JC (patient)): 144.7 pg/mL | PDGF-AB/B (CD8 of H84 JC (patient)): 11.69 pg/mL | PDGFaa (CD8 of H84 JC (patient)): 50.2 pg/mL | Rantes (CD8 of H84 JC (patient)): 377.89 pg/mL | TGFa (CD8 of H84 JC (patient)): 1.14 pg/mL | TNFa (CD8 of H84 JC (patient)): 8.45 pg/mL | TNFb (CD8 of H84 JC (patient)): 3.96 pg/mL | VEGF (CD8 of H84 JC (patient)): 109.58 pg/mL | sCD40L (CD8 of H84 JC (patient)): 7.43 pg/mL | EGF (CD8 of H85 TC (healthy twin)): 12.37 pg/mL | Eotaxin (CD8 of H85 TC (healthy twin)): 4.79 pg/mL | FGF2 (CD8 of H85 TC (healthy twin)): 4.1 pg/mL | FIT3L (CD8 of H85 TC (healthy twin)): 3.82 pg/mL | Fractalkine (CD8 of H85 TC (healthy twin)): 31.3 pg/mL | GCSF (CD8 of H85 TC (healthy twin)): 6.9 pg/mL | GMCSF (CD8 of H85 TC (healthy twin)): 5.22 pg/mL | GRO (CD8 of H85 TC (healthy twin)): 112.6 pg/mL | IFNa2 (CD8 of H85 TC (healthy twin)): 7.62 pg/mL | IFNg (CD8 of H85 TC (healthy twin)): 4.6 pg/mL | IL-1Ra (CD8 of H85 TC (healthy twin)): 52.33 pg/mL | IL-1a (CD8 of H85 TC (healthy twin)): 2.22 pg/mL | IL-1b (CD8 of H85 TC (healthy twin)): 2.13 pg/mL | IL-3 (CD8 of H85 TC (healthy twin)): 0.85 pg/mL | IL-4 (CD8 of H85 TC (healthy twin)): 13.08 pg/mL | IL-5 (CD8 of H85 TC (healthy twin)): 1.55 pg/mL | IL-6 (CD8 of H85 TC (healthy twin)): 2.98 pg/mL | IL-7 (CD8 of H85 TC (healthy twin)): 3.47 pg/mL | IL-8 (CD8 of H85 TC (healthy twin)): 282.21 pg/mL | IL-9 (CD8 of H85 TC (healthy twin)): 8.03 pg/mL | IL-10 (CD8 of H85 TC (healthy twin)): 4.26 pg/mL | IL-12p40 (CD8 of H85 TC (healthy twin)): 3.82 pg/mL | IL-12p70 (CD8 of H85 TC (healthy twin)): 2.38 pg/mL | IL-13 (CD8 of H85 TC (healthy twin)): 5.22 pg/mL | IL-15 (CD8 of H85 TC (healthy twin)): 1.62 pg/mL | IL-17a (CD8 of H85 TC (healthy twin)): 2.19 pg/mL | IP-10 (CD8 of H85 TC (healthy twin)): 2.53 pg/mL | L-2 (CD8 of H85 TC (healthy twin)): 4954 pg/mL | MCP1 (CD8 of H85 TC (healthy twin)): 308.14 pg/mL | MCP3 (CD8 of H85 TC (healthy twin)): 3.89 pg/mL | MDC (CD8 of H85 TC (healthy twin)): 98.41 pg/mL | MIP1a (CD8 of H85 TC (healthy twin)): 61.65 pg/mL | MIP1b (CD8 of H85 TC (healthy twin)): 93.34 pg/mL | PDGF-AB/B (CD8 of H85 TC (healthy twin)): 19.59 pg/mL | PDGFaa (CD8 of H85 TC (healthy twin)): 42.99 pg/mL | Rantes (CD8 of H85 TC (healthy twin)): 554.96 pg/mL | TGFa (CD8 of H85 TC (healthy twin)): 0.94 pg/mL | TNFa (CD8 of H85 TC (healthy twin)): 8.03 pg/mL | TNFb (CD8 of H85 TC (healthy twin)): 2.57 pg/mL | VEGF (CD8 of H85 TC (healthy twin)): 98.41 pg/mL | sCD40L (CD8 of H85 TC (healthy twin)): 3.2 pg/mL | EGF [3]: 12.37 pg/mL | Eotaxi [3]: 4.79 pg/mL | FGF2 [3]: 4.1 pg/mL | FIT3L [3]: 3.82 pg/mL | Fractalkin [3]: 31.3 pg/mL | GCSF [3]: 6.9 pg/mL | GMCSF [3]: 5.22 pg/mL | GRO [3]: 112.6 pg/mL | IFNa2 [3]: 7.62 pg/mL | IFNg [3]: 4.6 pg/mL | IL-1Ra [3]: 52.33 pg/mL | IL-1a [3]: 2.22 pg/mL | IL-1b [3]: 2.13 pg/mL | IL-3 [3]: 0.85 pg/mL | IL-4 [3]: 13.08 pg/mL | IL-5 [3]: 1.55 pg/mL | IL-9 [3]: 8.03 pg/mL | IL-10 [3]: 4.26 pg/mL | IL-12p40 [3]: 3.82 pg/mL | IL-12p70 [3]: 2.38 pg/mL | IL-13 [3]: 5.22 pg/mL | IL-15 [3]: 1.62 pg/mL | IL-17a [3]: 2.19 pg/mL | L-2 [3]: 4954 pg/mL | L-6 [3]: 2.98 pg/mL | L-7 [3]: 3.47 pg/mL | L-8 [3]: 282.21 pg/mL | MCP1 [3]: 308.14 pg/mL | MCP3 [3]: 3.89 pg/mL | MDC [3]: 98.41 pg/mL | MIP1a [3]: 61.65 pg/mL | MIP1b [3]: 93.34 pg/mL | P-10 [3]: 2.53 pg/mL | PDGF-AB/BB [3]: 19.59 pg/mL | PDGFaa [3]: 42.99 pg/mL | Rantes [3]: 554.96 pg/mL | TGFa [3]: 0.94 pg/mL | TNFa [3]: 8.03 pg/mL | TNFb [3]: 2.57 pg/mL | VEGF [3]: 98.41 pg/mL | sCD40L [3]: 3.2 pg/mL
